# In paper PMC4503980 (Scientific Reports, 2015):
# Sequences of proteins named here, by UniProt entry; tags and fusion partners are left off. Residues count along the entry.
# UniProt P78352, 155-249: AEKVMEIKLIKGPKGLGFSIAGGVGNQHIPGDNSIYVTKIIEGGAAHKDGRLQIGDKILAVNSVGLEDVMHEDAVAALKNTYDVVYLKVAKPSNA
# UniProt P78352, 61-249: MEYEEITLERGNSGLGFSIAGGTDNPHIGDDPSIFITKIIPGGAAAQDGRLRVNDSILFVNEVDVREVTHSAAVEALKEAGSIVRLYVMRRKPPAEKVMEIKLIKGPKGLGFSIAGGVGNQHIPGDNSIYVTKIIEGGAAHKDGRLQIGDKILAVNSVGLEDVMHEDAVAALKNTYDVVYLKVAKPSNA
# Columns and labels:
# PSD-95-PDZ2 = PSD-95-PDZ2 (Homo sapiens, UniProt P78352); assay: FP saturation and inhibition, TAMRA-Cnskr2 / PSD-95-PDZ2; type: binding; design: PDZ2 (155-249); made in house; host or cells: E. coli BL21-DE3 pLysS; settings: TAMRA-Cnskr2 5 nM, PDZ2 1.5 μM
# From the text: (§1) First we tested a series of 23 fluorescent-labelled C-terminal peptide ligands (Supplementary Table S1) derived from PDZ-interacting proteins in order to find a probe with good activity towards the PSD-95 PDZ domains and no or little activity against nNOS-PDZ (Supplementary Fig. S1). The Cnskr2 probe fulfilled these selectivity criteria and was used to generate saturation curves with PDZ2 and PDZ1-2 of PSD-95 (Fig. 4a). […] Next, fixed concentrations of TAMRA-Cnskr2, PSD-95-PDZ2/1-2, and nNOS-PDZ were applied, corresponding to the conditions at IC50 of the nNOS-PDZ inhibition curve (Fig. 4b) where sensitivity of the assay is greatest. […] Here, we used the Sapk3-peptide as it has the desired high affinity to α1-Syntrophin-PDZ and low affinity to nNOS-PDZ (Supplementary Fig. S1).
# (§2) The minor increases in mP at high concentrations, 260-2900 μM, were due to fluorescence artefacts.
# (§3) Incubation time was 10–15 minutes (room temperature), and the assay was performed in a 1 × TBS buffer (150 mM NaCl, 10 mM Tris, pH 7.4) using black flat-bottom 384-well plates (Corning Life Sciences, NY) and a Safire2 plate-reader (Tecan, Männedorf, Switzerland). […] TAMRA- and Cy5-probes were measured at excitation/emission values of 530/585 nm (bandwidth = 20 nm) and 635/670 nm (bandwidth = 15 nm), respectively. […]
# PSD-95-PDZ1-2 = biological target: T1, PSD-95-PDZ1-2 (Homo sapiens, UniProt P78352); assay: FP saturation and inhibition, TAMRA-Cnskr2 / PSD-95-PDZ1-2; type: binding; settings: TAMRA-Cnskr2 5 nM, PDZ1-2 1 μM
# T1 construct: PDZ1-2 (61-249); made in house; host or cells: E. coli BL21-DE3 pLysS
# From the text: as §1, §2, §3
smiles,measurement,setting,value
CC[C@H](C)[C@H](N)C(=O)N[C@@H](CCC(=O)O)C(=O)N[C@@H](CO)C(=O)N[C@@H](CC(=O)O)C(=O)N[C@H](C(=O)O)C(C)C [GluN2B-C5],Ki,PSD-95-PDZ2,1.6 ± 0.02 µM
same,Ki,PSD-95-PDZ1-2,4.8 ± 0.3 µM
